“Also recorded” adds a separate entry of the source.
Legend:
[1] = Light-induced cleavage of the Ru-S bond in aqueous solution; type: physicochemical; details: white light
[2] = Complex stability at human body temperature in the dark (1H NMR in D2O, 37° C.); type: physicochemical
Experimental: [Ru(terpy)(bpy)(Cl)](Cl) (2.23 mg, 3.97 μmol), compound [6](Cl)2 (2.14 mg, 2.84 μmol) and compound [7](Cl)2 (2.18 mg, 2.71 μmol) were weighed separately into three different NMR tubes. D2O (0.80 mL) was added to each of the NMR tubes and ^1H NMR spectra were taken. The NMR tubes were put into closed pressure tubes and kept in the dark at 37° C. to check the stability of the Ru—Cl and Ru—S bond. ^1H NMR spectra of each of the tubes were taken after 4 hours, 1 day, 3 days and 3 weeks. The NMR tubes were kept in an ice bath during transport in order to temporarily freeze the reaction. In the case of [Ru(terpy)(bpy)(Cl)](Cl), an equilibrium had been reached after four hours, characterized by 10% of [Ru(terpy)(bpy)(Cl)](Cl) and 90% of [Ru(terpy)(bpy)(H2O)](Cl)2. […] After three days, however, there was a few percent of [Ru(terpy)(bpy)(H2O)](Cl)2. After three weeks at 37° C., the ratio between compound [7](Cl)2 and [Ru(terpy)(bpY)(H2O)](Cl)2 was 7:3.
The stability of the Ru—S bond was measured at human body temperature and in the dark. To do so, compound [Ru(tpy)(apy)Cl]Cl, and [Ru(tpy)(apy)(AMet)]Cl2, (compound [13](Cl)2) were dissolved in D2O and kept in the dark at 37° C. The release of the aqua species was measured by ^1H NMR after 4 hours, 1 days, and 3 weeks. […] The stability of the Ru—S bond depends on the nature of the polypyridyl ligands (see Example 2), but in general it is much higher than that of the Ru—Cl bond.

[3] = deionized water, monochromatic blue light, 452 nm

Substance	photosubstitution of the monodentate sulfur ligand [1]	thermal conversion to aqua complex ([2]; after three weeks)	thermal conversion to aqua complex ([2]; within one day)	photosubstitution quantum yield [3]	thermal conversion to aqua complex ([2]; after three days)
[Ru(terpy)(bpy)(L-methionine)](BF4)2 [Compound [8](BF4)2]	photosubstituted by an aqua ligand				
[Ru(terpy)(bpy)(N-acetyl-L-methionine)](Cl)2 [Compound [6](Cl)2]	photosubstituted by an aqua ligand	had not been converted; also recorded: no trace	does not take place thermally	0.018(4)	
[Ru(terpy)(bpy)(D-biotin)](Cl)2 [Compound [7](Cl)2]	photosubstituted by an aqua ligand	a few percents	no changes were observed; also recorded: does not take place thermally	0.011(3)	a few percent
